The list shows a part of the results, in another mix than the full data. Active and inactive are the calls of the source. Rule for the calls: active = hit-call score of the fitted dose curve at least 0.9, where 1 is the maximum; inactive = score below 0.9.

This assay can be described thus: ATG_TAL_CIS: Attagene CIS-FACTORIAL HepG2 Assay for human TAL Basal Promoter (AID 2282966). The note with it: HepG2 Attagene cis-factorial TAL promoter reporter; actives raise or lower the signal. The procedure: ATG_CIS is a cell-based, multiplexed-readout assay that uses HepG2, a human liver cell line, with measurements taken at 24 hours after chemical dosing in a 24-well plate.ATG_TAL_CIS is one of 52 assay component(s) measured or calculated from the ATG_CIS assay. It is designed to make measurements of mRNA induction, a form of inducible reporter, as detected with fluorescence intensity signals by Reverse transcription polymerase chain reaction (RT-PCR) and Capillary electrophoresis technology.Data from the assay component ATG_TAL_CIS was analyzed into 1 assay endpoint. This assay endpoint, ATG_TAL_CIS, was analyzed with bidirectional fitting relative to DMSO as the negative control and baseline of activity. Using a type of inducible reporter, measures of mRNA for gain or loss-of-signal activity can be used to understand the background control at the transcription factor-level as they relate to the gene . Furthermore, this assay endpoint can be referred to as a secondary readout, because this assay has produced multiple assay endpoints where this one serves a background control function. To generalize the intended target to other relatable targets, this assay endpoint is annotated to the background measurement intended target family, where the subfamily is internal marker.
Human liver HepG2 cells are transiently transfected with multiple reporter transcription units (MRTUs) in 6-well plates using FuGene 6 reagent (Roche; 3 ml FuGene/1 mg DNA). The MRTU constructs are regulated by a cis-regulating element (promoter). […] A major difference between the CIS and TRANS system is that in CIS activities of endogenous TFs are measured, whereas the TRANS assay evaluates changes in activities of exogenous, chimeric NR-Gal4 proteins. […] At the end of 24 hour incubation, total RNA was isolated using TriZol reagent (Invitrogen). The isolated RNA is then reverse-transcribed using oligo(dT) primer and Mo-MLV reverse transcriptase (Invitrogen) with DNAse I (Ambion) treatment for 30 min. The one-tenth of the produced cDNA was amplified by PCR using Taq DNA polymerase (Invitrogen) and two reporter sequence-specific primers. The PCR products were fluorescently labeled by primer extension with 6-arboxyfluorescein (6-FAM) 5'-labeled reporter sequence-specific primer (2 min at 95 C, 20 s at 68 C and 10 min at 72 C) and these products were digested with 5U of HpaI (New England Biolabs) for 2h at 37 C. The fragments were purified using Qiaquick PCR columns (Qiagen), analyzed on an ABI 3130xL genetic analyzer (Applied Biosystems) with peak positions identified by using a set of X-rhodamine (ROX)-labeled MapMarker1000 molecular weight standards (BioVentures). The raw capillary electrophoresis data was processed using Attagraph software (Attagene).
Turning to `O=[N+]([O-])c1cccc([N+](=O)[O-])c1`, the outcome was inactive.

For the compound `COP(C)(=O)OC`, the outcome was inactive.

As for `CC(C)N(CCO)C(C)C`, the compound was classed as inactive.

In the case of `COc1ccc([N+](=O)[O-])cc1[N+](=O)[O-]`, the call was inactive.

As to `CN(C)CCCl`, the outcome was inactive.

For `Cc1c([N+](=O)[O-])cccc1[N+](=O)[O-]`, the result was inactive.

Consider `Cc1ccc([N+](=O)[O-])cc1[N+](=O)[O-]`, for which the compound was classed as inactive.

In the case of `O=[N+]([O-])OCC(CO[N+](=O)[O-])(CO[N+](=O)[O-])CO[N+](=O)[O-]`, the outcome was inactive.

Turning to `CC(C)OP(C)(=O)OC(C)C`, the compound was called inactive.

Consider `Cc1ccc([N+](=O)[O-])c([N+](=O)[O-])c1`, for which the result was inactive.

As to `Cc1cccc([N+](=O)[O-])c1[N+](=O)[O-]`, the outcome was inactive.

For `N#CBr`, the result was inactive.
